A short description of the data set: Determination of solubility in deionized water (HPLC, external standard). The settings on record: 25±2° C., after 30 min.

This note sets out measurements from patent US10517867B2, “Posaconazole derivative, pharmaceutical composition and use thereof” (priority 2016, dated 2019).

Some results are limits rather than exact numbers.

For orientation: Solubility means the dissolved amount per volume that the medium holds. Low values mean a poorly soluble substance, high ones a readily soluble substance. In the case of `CC[C@@H]([C@H](C)OC(=O)OC(C)OC(=O)CNC(=O)CN(C)C(=N)NP(=O)([O-])[O-])n1ncn(-c2ccc(N3CCN(c4ccc(OC[C@@H]5CO[C@@](Cn6cncn6)(c6ccc(F)cc6F)C5)cc4)CC3)cc2)c1=O.[Na+].[Na+]` (some centres unmarked), the Solubility is >50 mg/mL.

The molecule `CC[C@@H]([C@H](C)OC(=O)OC(C)OC(=O)CN(C)C(=N)NP(=O)([O-])[O-])n1ncn(-c2ccc(N3CCN(c4ccc(OC[C@@H]5CO[C@@](Cn6cncn6)(c6ccc(F)cc6F)C5)cc4)CC3)cc2)c1=O.[Na+].[Na+]` (some centres unmarked) had a Solubility of 45.8 mg/mL.
